## Yeast mating assay B: variants of the scFv Ab-14

Values reported by Li et al. 2023, doi:10.1038/s41467-023-39022-2 (FLAb copy).

The target is the same throughout: PDVDLGDISGINAS, from the HR2 region of SARS-CoV-2 spike.

The variants keep the heavy chain, the linker and the frameworks of Ab-14 (scFv order VH, a (GGGGS)3 linker, VL).
VH: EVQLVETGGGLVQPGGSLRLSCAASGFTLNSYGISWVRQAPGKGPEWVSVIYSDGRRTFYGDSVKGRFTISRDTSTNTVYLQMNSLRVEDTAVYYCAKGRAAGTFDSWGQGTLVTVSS
VL: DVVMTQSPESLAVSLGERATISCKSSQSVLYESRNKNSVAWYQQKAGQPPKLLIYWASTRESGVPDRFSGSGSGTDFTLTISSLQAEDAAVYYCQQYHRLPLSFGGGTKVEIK

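The parent was found by panning a naive human phage display library on the peptide. This is the validation round: designs drawn from the data on random variants, tested in the same kind of assay. Group labels follow the data file (Ctrl: baseline library sampled from a position-specific scoring matrix, with some repeated check sequences; Rand: our label for a block that the file lists under HC and that is probably the random mutants of the ten best first-round binders; GP: Gaussian process model; GPLM: also part of the Gaussian process libraries; HC: hill climbing; Gen: genetic algorithm; Gibbs: Gibbs sampling; a sequence that several methods proposed may carry one label only). In AlphaSeq, yeast of one mating type display the scFv and yeast of the other type display the target. After mating in shaken culture at 30 °C for 16 h, diploids were selected and their barcode pairs sequenced. Scores were corrected for input abundance and mapped to Kd with protein pairs of known affinity run in the same pool. The assay was run in six technical replicates.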

Variants are written as CDR1, CDR2 and CDR3 of the light chain (limits as in the source). Parent: KSSQSVLYESRNKNSVA, WASTRES, QQYHRLPLS.
This list holds designs with at most six substitutions.
Kd is apparent (estimated from mating counts) and averaged on the log scale over replicates with a signal. Smaller is tighter.
A pair that was not seen in any replicate is written "nd"; this usually means weak binding, but a binder can also be missed.
The parent sequence was in this pool as ten entries: three were never detected, three once, and four in most replicates, with averages from 2.2 nM to 240 nM.
The authors averaged sequences with at least three values out of six and counted those with two or fewer as poor binders.
Empty control strains, which show no peptide, gave a signal in 4% of pairings with all light chain designs; the median was 430 nM and 95% of these signals were weaker than 38 nM. No background was subtracted.
Values of this round are not directly comparable with the first-round values of the same sequences.

With KSSQSVLVESSNKNSVA | WASTRES | QQYQRLPLS [Ctrl] the result was 57 nM (6 of 6 replicates). With KMSQPVLYESRNKNSVA | WASQRES | QQYHRLPLS [Ctrl] the result was 9.6 nM (6 of 6 replicates). Variant KLSQSVLYESGNKNSVA | DASTRES | YQYHRLPSS [GP_HC] showed 32 nM (6 of 6 replicates). Variant KSSQSTLYESRNKNSVA | TASTRES | QQYHRLPLS [Ctrl] showed 6.8 nM (6 of 6 replicates). With KMSQSVPYESRNKNSVA | EASTRES | QQYHRLPLS [GP_Gen] the result was 1.4 nM (6 of 6 replicates). With KSSQSVLYESNNKNSVA | WASTRES | QQYHRPPLS [Ctrl] the result was 120 nM (6 of 6 replicates). For KSSQSVLYESRNKNSVA | AASTRTS | QQYHRLPLS [Ctrl], the assay gave 320 nM (6 of 6 replicates). Variant KLSLSVLLESRNKNSVA | NASTRES | QQYHRLPLS [GP_HC] showed 730 pM (6 of 6 replicates). Variant KLSQSELYESRNKNSVA | NASTRLS | QQYHRLPLS [GP_Gen] showed 220 pM (6 of 6 replicates).

With KSSQSVFYESRNKNSVA | KASTRES | QQYHRLPLS [Ctrl] the result was 41 nM (6 of 6 replicates). Variant KSSISCLEESRNKNSVA | EASTRES | QQYHRLPLS [GP_HC] showed 910 pM (6 of 6 replicates). For KSSISYLYESGNKNSVA | QASTRES | QQYHRLPLS [GP_HC], the assay gave 2.4 nM (6 of 6 replicates). With KQSQSVLYESRNKNAVA | EASTRES | QQYHWLPLS [GP_HC] the result was 3.5 nM (6 of 6 replicates). Variant KWSQSELFESRNKNSVA | DASTRES | QQYHRLPLS [GP_HC] gave 1.6 nM (6 of 6 replicates). With KLQQSWPYESRNKNSVA | NASQRES | QQYHRLPLS [GP_Gen] the result was 7.1 nM (6 of 6 replicates). With KVSQSVLYESRNKNSVA | DASQRES | QQYHRLPLS [GP_Gen] the result was 4.9 nM (6 of 6 replicates). With KSSQSVLYEWSNKNSVA | WASTRES | QQYHRLPLS [Ctrl] the result was 6.5 nM (6 of 6 replicates). Variant KLLQSWLYESRNKNSVA | HASTREQ | QQYHRLPLS [GP_HC] showed 970 pM (6 of 6 replicates).

For KLSQSVLYESRMSNSVA | NASTRES | QQYHRLPLS [GP_Gen], the assay gave 1.6 nM (6 of 6 replicates). Variant KSSQSVLYEARNKNSVA | WASTRES | QQYHRLPLS [Ctrl] gave 120 nM (3 of 6 replicates). With KQSQMVLYESRNKNAVA | DASTRES | QQYHWLPLS [GP_HC] the result was 1.6 nM (6 of 6 replicates). For KLSQSVLYESRNTNSVA | EASTRES | QQYHRLPLS [GP_Gen], the assay gave 1.5 nM (6 of 6 replicates). With KSSQGVLYESRNKNSVA | GASTRES | QQYHRLPLS [GPLM_HC] the result was 2.3 nM (6 of 6 replicates). Variant HSSPSVEYESRNKNSVA | NASTREE | QDYHRLPLS [GP_HC] gave 990 pM (6 of 6 replicates). With KISQSVLYESRNKNAVA | NASTRES | QQYHRLPLS [GP_Gen] the result was 380 pM (6 of 6 replicates). With RQSQSVLYESRNKNSVA | GASTRES | QQYHRLPLS [GP_HC] the result was 460 pM (6 of 6 replicates). Variant KSSQSDLYESRNKNSVA | GASTREN | QQYHRLPLS [GP_HC] gave 600 pM (6 of 6 replicates).

With KSSQSVLYEFTNKNSVA | WASTRES | QQYHMLPLS [Ctrl] the result was 87 nM (3 of 6 replicates). With KLQQSQLYESRNKNSVA | HASTRED | QQYHRLPLS [GP_HC] the result was 900 pM (6 of 6 replicates). With KSSQGVLYESNNKNSVA | WASTRES | QLYHRLPLS [Ctrl] the result was nd (0 of 6 replicates). Variant KVDQSTLYESRNKNSVA | WASTRES | QQYHRLPLS [GP_HC] showed 250 nM (3 of 6 replicates). With CSEQSVLYESRNKNSLA | KASTREI | QQYHRLPLS [Rand] the result was 21 nM (6 of 6 replicates). Variant KVVQSHDYESRNKNSVA | DASTRCS | QQYHRLPLS [GP_Gibbs] gave 900 pM (6 of 6 replicates).